Reference: ChEMBL document CHEMBL1149262, “Monoamine transporter binding, locomotor activity, and drug discrimination properties of 3-(4-substituted-phenyl)tropane-2-carboxylic acid methyl ester isomers” (J Med Chem, 2004)

The chains behind the UniProt entries cited, without tags or fusion partners.
UniProt P31645, whole entry: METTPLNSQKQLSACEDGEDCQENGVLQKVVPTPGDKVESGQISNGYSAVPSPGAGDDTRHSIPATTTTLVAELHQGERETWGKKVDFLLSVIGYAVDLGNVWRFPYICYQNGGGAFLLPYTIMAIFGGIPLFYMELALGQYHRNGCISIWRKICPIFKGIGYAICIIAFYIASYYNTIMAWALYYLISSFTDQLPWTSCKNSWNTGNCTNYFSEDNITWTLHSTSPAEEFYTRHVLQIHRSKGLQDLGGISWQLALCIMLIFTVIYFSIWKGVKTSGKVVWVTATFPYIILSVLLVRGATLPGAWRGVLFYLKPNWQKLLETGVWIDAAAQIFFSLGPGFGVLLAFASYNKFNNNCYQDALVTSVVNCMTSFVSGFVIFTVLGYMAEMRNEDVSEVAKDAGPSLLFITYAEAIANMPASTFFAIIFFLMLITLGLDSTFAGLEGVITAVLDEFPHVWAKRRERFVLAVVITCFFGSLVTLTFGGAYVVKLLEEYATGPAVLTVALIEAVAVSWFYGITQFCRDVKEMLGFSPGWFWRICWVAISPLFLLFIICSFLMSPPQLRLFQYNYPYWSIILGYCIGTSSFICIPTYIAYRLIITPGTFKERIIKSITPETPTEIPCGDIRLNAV

Target: Sodium-dependent serotonin transporter (Homo sapiens, UniProt P31645)

COC(=O)[C@H]1C2CCC(C[C@@H]1c1ccccc1)N2C (stereo partly drawn)
IC50: > 10 µM

COC(=O)[C@@H]1C2CCC(C[C@H]1c1ccccc1)N2C (stereo partly drawn)
IC50: 5.7 µM
Ki: 0.518 µM
